Laboratory results: PMC12376128, “In vitro and In Vivo Drug Metabolism Analysis of BPI-460372 - A Covalent TEAD1/3/4 Inhibitor” (Current Drug Metabolism, 2025)

Experiments:
Test in all cases: Metabolic stability in hepatocytes
dog hepatocytes = system: dog hepatocytes
Procedure: (§1) After mixing, 20 μL of cell suspension was serially transferred into 200 μL of cold acetonitrile containing IS at the time points of 0, 5, 15, 30, 60, and 120 min, respectively.
(§2) The metabolic stability was assessed by measuring the depletion of substrate. The half-life (t1/2), intrinsic clearance (CLint, in virto, µL·min^-1·million cells^-1), whole liver intrinsic clearance (CLint, in vivo, mL·min-1·kg^-1), and in vivo hepatic clearance (CLH, mL·min-1·kg^-1) were calculated following a reported method. In the calculation of CLH, the fraction drug unbound (Fub) was set as 1. The hepatic blood flow, liver weight, and hepatocellularity of five species were used for the calculation of CLint, in vivo [13, 14]. The hepatic extraction ratio (Eh) means the ratio of CLH to hepatic blood flow.

human hepatocytes = system: human hepatocytes
Procedure: as §1, §2

monkey hepatocytes = system: monkey hepatocytes
Procedure: as §1, §2

mouse hepatocytes = system: mouse hepatocytes
Procedure: as §1, §2

rat hepatocytes = system: rat hepatocytes
Procedure: as §1, §2

Compound: C[C@]12CC[C@H]3[C@@H](CCC4=CC(=O)CC[C@@]43C)[C@@H]1CC[C@@H]2O [Testosterone, testosterone]
- Eh (dog hepatocytes): 0.916
- Eh (human hepatocytes): 0.901
- Eh (monkey hepatocytes): 0.832
- Eh (mouse hepatocytes): 0.860
- Eh (rat hepatocytes): 0.809
